Measured values reported in ChEMBL document CHEMBL4024804 (J Med Chem, 2018).

Assay: in vivo
Settings: mouse

COc1ccc(N(C)c2nc(C)nc3ccccc23)cc1.Cl [VERUBULIN HYDROCHLORIDE] showed an MTD of 1 mg/kg.
